Among the data in patent US10624947B2, “Bactericidal peptides and uses thereof” (INDIANA UNIVERSITY RESEARCH AND TECHNOLOGY CORPORATION, priority 2016, dated 2020) are Minimal inhibitory concentration values, retold here.

SMILES strings stand for the structures. In brackets after ≈: the same amount, converted by molar mass. Like-named read-outs stand apart in the source and are kept apart here.

The test system of this experiment is Escherichia coli.

With `CC[C@H](C)[C@H](NC(=O)[C@H](CCCNC(=N)N)NC(=O)[C@H](CS)NC(=O)[C@@H]1CCCN1C(=O)[C@H](Cc1ccc(O)cc1)NC(=O)[C@@H]1CCCN1C(=O)[C@@H](NC(=O)[C@H](CCC(N)=O)NC(=O)CNC(=O)[C@H](Cc1ccc(O)cc1)NC(=O)[C@H](CCC(=O)O)NC(=O)[C@H](CCCNC(=N)N)NC(=O)[C@H](Cc1c[nH]c2ccccc12)NC(=O)[C@H](C)NC(=O)[C@H](CCCCN)NC(=O)[C@H](Cc1c[nH]c2ccccc12)NC(=O)[C@@H](NC(=O)[C@H](CCCCN)NC(=O)[C@H](CCCNC(=N)N)NC(=O)CNC(=O)[C@@H](NC(=O)[C@H](CCCCN)NC(=O)CNC(=O)[C@@H](NC(=O)[C@H](CCCCN)NC(=O)[C@H](CCCNC(=N)N)NC(=O)CNC(=O)[C@H](CC(C)C)NC(=O)[C@H](CCCCN)NC(=O)[C@H](CCC(N)=O)NC(=O)[C@@H](NC(=O)[C@H](CCCNC(=N)N)NC(=O)[C@H](CCCCN)NC(=O)[C@H](CCCNC(=N)N)NC(=O)[C@@H](NC(=O)[C@H](CCCCN)NC(=O)[C@H](CCCNC(=N)N)NC(=O)[C@H](Cc1ccccc1)NC(=O)[C@H](CCCCN)NC(=O)[C@H](CCCCN)NC(=O)[C@H](CCCNC(=N)N)NC(=O)[C@H](CC(C)C)NC(=O)CN)[C@@H](C)O)[C@@H](C)CC)[C@@H](C)CC)[C@@H](C)O)C(C)C)[C@@H](C)CC)C(=O)O` [CAP-11, reference compound], the Minimal inhibitory concentration (E. coli IU0342) was determined as 4 µg/mL (≈ 0.757 µM) and the Minimal inhibitory concentration (E. coli MC4100) worked out at 4 µg/mL (≈ 0.757 µM).
